Assay results: patent publication US10919858B2, “Thioacetate compounds, compositions and methods of use” (ARDEA BIOSCIENCES, INC., priority 2010, dated 2021)

Sequences of proteins named here, by UniProt entry; tags and fusion partners are left off.
UniProt Q96S37, whole entry, species assumed: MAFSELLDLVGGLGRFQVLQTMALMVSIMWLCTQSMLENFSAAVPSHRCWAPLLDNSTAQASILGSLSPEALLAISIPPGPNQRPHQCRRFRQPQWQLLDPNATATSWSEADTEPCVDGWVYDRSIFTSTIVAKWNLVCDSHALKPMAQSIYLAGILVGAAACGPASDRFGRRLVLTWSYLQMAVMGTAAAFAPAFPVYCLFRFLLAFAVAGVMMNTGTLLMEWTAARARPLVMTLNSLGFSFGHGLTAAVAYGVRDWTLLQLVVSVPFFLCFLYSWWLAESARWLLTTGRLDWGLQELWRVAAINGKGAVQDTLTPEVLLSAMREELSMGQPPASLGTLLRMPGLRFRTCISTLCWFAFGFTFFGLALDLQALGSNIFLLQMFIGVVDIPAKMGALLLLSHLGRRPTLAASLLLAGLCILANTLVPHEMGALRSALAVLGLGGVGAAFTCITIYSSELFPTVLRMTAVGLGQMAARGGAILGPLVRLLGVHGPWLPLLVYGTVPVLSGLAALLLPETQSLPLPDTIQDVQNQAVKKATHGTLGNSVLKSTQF

Biological target: URAT1 (Homo sapiens (Human), UniProt Q96S37)
Experiment: URAT1-model assay, 14C-uric acid transport in HEK293/URAT1-model cells
Assay type: cell-based
Description: HEK293 human embryonic kidney cells (ATCC #CRL-1573) were propagated in EMEM tissue culture medium as described by ATCC in an atmosphere of 5% C02 and 95% air. Transfections of HEK293 cells with a model URAT1 construct was performed using L2000 transfection reagent (Invitrogen) as described by the manufacturer. After 24 h the transfected cells were split into 10 cm tissue culture plates and grown for 1 day after which the medium was replaced with fresh growth medium containing G418 (Gibco) at 0.5 mg/ml final concentration. Drug-resistant colonies were selected after approximately 8 days and then tested for ^14C-uric acid transport activity. The HEK293/URAT1-model cells are plated on Poly-D-Lysine Coated 96-well Plates at a density of 125,000 cells per well.
Cells were grown overnight (20-26 hours) at 37° C. in an incubator. Plates were allowed to come to room temperature and media was washed out with one wash of 250 μl of Wash Buffer (125 mM Na Gluconate, 10 mM Hepes ph 7.3). Compound or vehicle is added in assay buffer with ^14C-uric acid for a final concentration of 125 μM Uric Acid with a specific activity of 54 mCi/mmol. […] Plates are then read on the TopCount Plate Reader and an EC50 value generated. […]

- EC50: 50 to 500 nM
SMILES: CC(C)(Sc1ncccc1-c1ccc(C#N)c2ccccc12)C(=O)O [Example 4A, 2-(3-(4-Cyanonaphthalen-1-yl)pyridin-2-ylthio)-2-methylpropanoic acid]
